# Assay results reported in article PMC6235002, “Born to sense: biophysical analyses of the oxygen sensing prolyl hydroxylase from the simplest animal Trichoplax adhaerens” (Hypoxia, 2018).
# Protein sequences, listed by entry. Tags and fused reporters are not part of them. Residues count along the entry.
# UniProt I6QVT6, entry or part of it: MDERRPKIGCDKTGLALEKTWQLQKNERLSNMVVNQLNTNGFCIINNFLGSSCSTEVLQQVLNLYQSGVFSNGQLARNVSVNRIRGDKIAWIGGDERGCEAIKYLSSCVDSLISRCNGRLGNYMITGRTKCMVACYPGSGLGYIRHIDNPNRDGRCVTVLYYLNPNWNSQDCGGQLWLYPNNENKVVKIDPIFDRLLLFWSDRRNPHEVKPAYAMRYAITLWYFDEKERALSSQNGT
# UniProt Q9GZT9, 181-426: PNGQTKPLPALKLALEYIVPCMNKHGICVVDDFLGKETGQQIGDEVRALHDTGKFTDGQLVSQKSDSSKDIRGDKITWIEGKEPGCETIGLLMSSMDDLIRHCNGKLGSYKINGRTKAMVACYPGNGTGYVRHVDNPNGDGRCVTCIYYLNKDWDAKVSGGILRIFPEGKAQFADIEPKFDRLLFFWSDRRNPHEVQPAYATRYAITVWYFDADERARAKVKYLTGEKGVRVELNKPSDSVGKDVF
# Key:
# TaPHD^64-300 = TaPHD^64-300 (Trichoplax adhaerens, UniProt I6QVT6); conditions: no substrate, 20 µM enzyme, 125 µM Fe(II), 1 mM ascorbate, 400 µM 2OG, 50 mM Tris-D11 pH 7.5, 10% D2O/90% H2O, ^1H NMR
# TaPHD = conditions: cited from earlier work
# HsPHD2^181-426 = HsPHD2^181-426 (Homo sapiens, UniProt Q9GZT9); conditions: HsPHD2, no substrate; 20 µM enzyme, 125 µM Fe(II), 1 mM ascorbate, 400 µM 2OG, 50 mM Tris-D11 pH 7.5, 10% D2O/90% H2O; ^1H NMR
# Procedure: Notes: (A) Sequence alignment of TaHIFa, HsHIFa, and substrates of PHD-like enzymes in Dictyostelium discoideum (DdSkp1) and Pseudomonas putida (PpEF-Tu). […] Peptide hydroxylation was analyzed by MALDI-MS; the apparent non-enzymatic Met oxidation was subtracted. Data were fitted with the Michaelis-Menten equation using GraphPad Prism® (errors are indicated as standard deviations, n=3).
structure (smiles),measurement,setting,value
"O=C(O)CCC(=O)C(=O)O [2OG, 2-oxoglutarate]",rate of uncoupled 2OG turnover,TaPHD^64-300,very low
same,half-life of TaPHD.Fe.2OG complex,TaPHD,> 24 h
same,rate of uncoupled 2OG turnover,HsPHD2^181-426,very low
